The record followed here is US20060178387A1, “Combined treatment with capecitabine and an epidermal growth factor receptor kinase inhibitor” (priority 2005, published 2006).

The test system of series [1] is A-431 (human vulval epidermal cancer) cells. Put plainly: Tumor-growth inhibition in vivo, A-431 xenograft in BALB/c nu/nu mice. As to conditions: capecitabine 359 mg/kg (66% of MTD) orally once daily for 14 days.
Series [2] in a line: Intestinal toxicity and myelotoxicity in mice bearing LoVo tumors. The settings on record: erlotinib 100 mg/kg/day, capecitabine 359 mg/kg, alone or combined, once daily for 14 days, day 15, mean ± SD, n=5.
Series [3] relates to LoVo (human colon cancer) cells. Put plainly: Tumor-growth inhibition in vivo, LoVo xenograft in BALB/c nu/nu mice. The settings on record: capecitabine 359 mg/kg (67% of MTD) orally once daily for 14 days.
Series [4] in a line: Tolerability (body weight, deaths, MTD) in tumor-bearing mice. As to conditions: mice bearing LoVo tumors; erlotinib 50, 75, 100 or 125 mg/kg once daily for 2 weeks. In kind it is in vivo, BALB/c nu/nu mice. The text has this:
Male and female, 4-6-weeks old BALB/c nu/nu mice were obtained from Nippon Clea (Tokyo, Japan). All animals were allowed to acclimatize and recover from shipping-related stress for 1 week prior to the study. The health of the mice was monitored daily by observation.

Marks after values point to notes of the source that are not given here.

On to `CCCCCOC(=O)Nc1nc(=O)n([C@@H]2O[C@H](C)[C@@H](O)[C@H]2O)cc1F` [Capecitabine, capecitabine], for which the tumor-growth inhibition in series [1] (day 15) is 76** %; in series [1] (day 15, listed as capecitabine), 76%; in series [3] (day 15), 43* %; in series [3] (day 15, listed as capecitabine), 43%. The WBC count in series [2] is 3.9 ± 0.5 ×10^6 cells/ml.
`C#Cc1cccc(Nc2ncnc3cc(OCCOC)c(OCCOC)cc23)c1` [Erlotinib, [6,7-bis(2-methoxyethoxy)-4-quinazolin-4-yl]-(3-ethynylphenyl)amine]: in series [4], the “weight loss (of the body weight at start of treatment)” value is recorded as at most 20%. Moreover, the WBC count in series [2] is on record as 5.0 ± 0.5 ×10^6 cells/ml.
